This is a selection; strong and weak results do not stand in their true shares. The source made the active and inactive calls.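 Rule for the calls: active = inhibition above its plate's cutoff, the mean inhibition of sample wells plus 3 SD (cut at about 27% in these data); inactive = the rest.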
Each compound was assayed against Muscarinic acetylcholine receptor M4 (Homo sapiens) (UniProt P08173) (assay: human M4 muscarinic receptor antagonists, primary screen, CHO cells, Fluo-8 calcium fluorescence (AID 624125;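 note: 0% = acetylcholine EC80 with DMSO and 100% = DMSO without agonist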)). Details: CHO-hM4 cells, ACh EC80, Fluo-8 calcium fluorescence; at 3 µM; stronger effect = higher value.

By UniProt entry, the sequences of proteins in these tests, tags left out.
UniProt P08173, whole entry: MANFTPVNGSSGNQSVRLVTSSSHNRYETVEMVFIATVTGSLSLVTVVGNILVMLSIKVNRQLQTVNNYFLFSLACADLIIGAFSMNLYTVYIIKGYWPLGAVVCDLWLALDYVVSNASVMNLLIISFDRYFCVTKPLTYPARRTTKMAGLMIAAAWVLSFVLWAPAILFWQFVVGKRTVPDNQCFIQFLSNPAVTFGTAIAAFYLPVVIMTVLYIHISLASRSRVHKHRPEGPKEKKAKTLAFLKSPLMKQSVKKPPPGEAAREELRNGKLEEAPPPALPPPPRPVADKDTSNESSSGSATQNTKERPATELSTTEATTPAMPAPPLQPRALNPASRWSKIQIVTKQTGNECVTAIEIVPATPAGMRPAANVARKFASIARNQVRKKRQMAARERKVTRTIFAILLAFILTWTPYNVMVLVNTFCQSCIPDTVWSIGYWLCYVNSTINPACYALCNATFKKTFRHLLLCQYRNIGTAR

SMILES | inhibition
COc1ccc(C(=O)NCC2(N3CCCCC3)CCCCC2)cc1 | inactive: 2.84%
Cc1cccc(NC2(C#N)CCN(Cc3ccccc3)CC2)c1 | inactive: -2.51%
CSc1ccccc1C(=O)NCC1(N2CCCCC2)CCCCC1 | inactive: 4.85%
O=C(NCC1(N2CCOCC2)CCCCC1)c1cc2ccccc2o1 | inactive: 1.84%
Cc1cc(C)cc(N(C(=O)c2ccccc2)C2CCN(C(=O)OC(C)(C)C)CC2)c1 | inactive: 3.67%
O=c1[nH]c2ccccc2n1C1CCN(C(c2ccccc2OC(F)(F)F)c2nnnn2C2CCCCC2)CC1 (configuration not stated) | inactive: -9.67%
O=C(NCC1(N2CCCCC2)CCCCC1)c1ccc(Cl)nc1 | inactive: -4.22%
CCCCn1nnnc1C(c1ccc(OC)cc1)N1CCC(n2c(=O)[nH]c3ccccc32)CC1 (configuration not stated) | inactive: 2.64%
CCOC(=O)N1CCC(Nc2ccc(OC)cc2)CC1 | inactive: 4.93%
COc1ccc(Cl)cc1C(=O)NCC1(N2CCOCC2)CCCCC1 | inactive: 0.07%
O=c1[nH]c2ccccc2n1C1CCN(C(c2cc3ccccc3o2)c2nnnn2C2CCCCC2)CC1 (configuration not stated) | inactive: 3.04%
O=C(NCC1(N2CCCCC2)CCCCC1)c1ccc(Cl)s1 | inactive: -2.26%
N#CC1(Nc2ccccc2)CCN(Cc2ccccc2)CC1 | inactive: 0.55%
CCOc1ccc(C)cc1CN(CCCl)CCCl | inactive: -3.59%
O=C1CCN(Cc2ccccc2)CC1 | inactive: -17.3%
CC(C)(C)n1nnnc1C(c1ccccc1)N1CCC(n2c(=O)[nH]c3ccccc32)CC1 (configuration not stated) | inactive: -13.6%
CCOC(=O)N1CCC(Nc2ccc(F)cc2)CC1 | inactive: 11.1%
COc1ccc(NC2CCN(CCc3ccccc3)CC2)c(OC)c1 | inactive: -1.43%
O=C(NCC1(N2CCCCC2)CCCCC1)c1ccc(F)cc1 | inactive: 12.8%
CCCCOc1ccc(C(=O)NCC2(N3CCOCC3)CCCCC2)cc1 | inactive: -1.31%
CCCCn1nnnc1C(c1cc2ccccc2o1)N1CCC(n2c(=O)[nH]c3ccccc32)CC1 (configuration not stated) | inactive: -3.91%
O=P1(N(CCCl)CCCl)SCCCS1 | inactive: -11.9%
O=c1[nH]c2ccccc2n1C1CCN(C(c2ccccc2)c2nnnn2C2CCCCC2)CC1 (configuration not stated) | inactive: 1.39%
O=c1[nH]c2ccccc2n1C1CCN(C(c2cccc3ccccc23)c2nnnn2C2CCCC2)CC1 (configuration not stated) | inactive: -2.11%
COc1cc(C(=O)NCC2(N(C)C)CCCCC2)ccc1OC(F)F | inactive: -6.59%
CCOC(=O)N1CCC(Nc2cccc(C)c2)CC1 | inactive: -0.38%

SMILES | inhibition
O=C(NCC1(N2CCCCC2)CCCCC1)c1ccc(OC(F)F)cc1 | inactive: 2.89%
CC(C)(C)n1nnnc1C(c1ccccc1OC(F)(F)F)N1CCC(n2c(=O)[nH]c3ccccc32)CC1 (configuration not stated) | inactive: -4.25%
O=C(NCC1(N2CCCCC2)CCCCC1)c1cccc([N+](=O)[O-])c1 | inactive: 1.27%
CSc1ccc(C(=O)NCC2(N3CCOCC3)CCCCC2)cc1 | inactive: -3.76%
N#CC1(Nc2ccccc2)CCN(CCc2ccccc2)CC1 | inactive: -8.6%
O=c1[nH]c2ccccc2n1C1CCN(C(c2ccccc2OC(F)(F)F)c2nnnn2C2CCCC2)CC1 (configuration not stated) | inactive: -27.3%
CCN1CCC(Nc2ccc(Cl)cc2)CC1 | inactive: -0.81%
O=C(NCC1(N2CCCCC2)CCCCC1)c1cccc(C(F)(F)F)c1 | inactive: 4.24%
CCCCn1nnnc1C(c1cccc2ccccc12)N1CCC(n2c(=O)[nH]c3ccccc32)CC1 (configuration not stated) | inactive: 0.34%
COc1ccc(NC2CCN(C(=O)OC(C)(C)C)CC2)cc1 | inactive: 4.32%
CC(C)c1ccc(C(=O)NCC2(N3CCOCC3)CCCCC2)cc1 | inactive: -5.32%
O=C(NCC1(N2CCOCC2)CCCCC1)c1cc(=O)[nH]c2ccccc12 | inactive: -8.88%
COc1cc(C(=O)NCC2(N3CCCCC3)CCCCC2)ccc1OC(F)F | inactive: -13.9%
CN(C)c1cccc(C(=O)NCC2(N3CCCCC3)CCCCC2)c1 | inactive: -9.41%
COc1ccc(CN(CCCl)CCCl)cc1Cl | inactive: -7.09%
CCCCn1nnnc1C(c1ccccc1OC(F)(F)F)N1CCC(n2c(=O)[nH]c3ccccc32)CC1 (configuration not stated) | inactive: -7.34%
CC(C)c1ccc(NC2CCN(C(=O)OC(C)(C)C)CC2)cc1 | inactive: -11.4%
CCCCn1nnnc1C(c1ccnc2ccccc12)N1CCC(n2c(=O)[nH]c3ccccc32)CC1 (configuration not stated) | inactive: -7.71%
O=C(NCC1(N2CCOCC2)CCCCC1)c1cc(F)c(F)cc1Cl | inactive: -7.87%
CCC(c1nnnn1C(C)(C)C)N1CCC(n2c(=O)[nH]c3ccccc32)CC1 (configuration not stated) | inactive: -27.4%
COc1cc(OC)c(C(=O)NCC2(N(C)C)CCCCC2)cc1OC | inactive: 2.71%
O=C(NCC1(N2CCCCC2)CCCCC1)c1cncc(Br)c1 | inactive: 8.66%
CN1CCC(Nc2cccc(F)c2)CC1 | inactive: 4.62%
CCCOc1ccc(C(=O)NCC2(N(C)C)CCCCC2)cc1OC | inactive: -1.1%
Cc1ccc(C(=O)NCC2(N(C)C)CCCCC2)o1 | inactive: -22.8%
COc1ccc(C(c2nnnn2C2CCCC2)N2CCC(n3c(=O)[nH]c4ccccc43)CC2)cc1 (configuration not stated) | inactive: -4.19%
